Literature values, collected in patent US20120122787A1, “METHODS FOR TREATING POLYCYSTIC KIDNEY DISEASE (PKD) OR OTHER CYST FORMING DISEASES” (priority 2009, published 2012).

Test system: wild-type rats
Conditions: rat, in vivo; cited from earlier work

## 1-deamino-8-D-arginine vasopressin [dDAVP]
  renal effect in wild-type rats: renal hypertrophy
